Assay: Inhibition of P-glycoprotein assessed as efflux ratio

Ratio: 14
SMILES: C[C@H]1CN(C(=O)c2ccc(-c3ccncc3)c(F)c2)CCN1C(=O)c1ccc2cc[nH]c2c1
